# In patent publication EP4701641B1, “5-AMINO-2,3-DIHYDRO-1,4-PHTHAL[…] THE PROPHYLAXIS AND TREATMENT OF […]” (MetrioPharm AG, priority 2023, dated 2025):
# Test system: Coronary artery smooth muscle cells
# Conditions: SRB assay for 24 hours; data not shown
# Description: Coronary artery smooth muscle cells pooled from human donors (n = 3) were commercially acquired and cultured according to the recommendations of the manufacturer. They were stimulated with IL-1β, TNF-α and IFN-γ to emulate conditions of vascular inflammation. The […] were cultured in 96 well-plates until confluence. Details are described in Kunkel et al. (2004) FASEB J 18: 1279-1281). […] The substance was added at the indicated concentration 1 hour before stimulation and remained in culture for 48 hours. Each plate contained positive and negative controls (non-stimulated cells) as well as vehicle controls (buffer solution). Direct ELISA (enzyme-linked immunosorbent assay) was used to measure thrombomodulin levels. Soluble factors from supernatants were quantified using capture ELISA.
compound,measurement,value
"Nc1cccc2c(=O)[nH][nH]c(=O)c12.[Na] [5-amino-2,3-dihydro-1,4-phthalazinedione sodium salt]",overt cytotoxic effects,no cytotoxic effects were observed
